Results: PMC11571015, “Hybrids of Membrane-Translocating Antimicrobial Peptides Show Enhanced Activity through Membrane Permeabilization” (ACS Medicinal Chemistry Letters, 2024)

Key:
[1] = test system: E. coli; assay type: cell-based, E. coli (Top10 Strain); conditions: median MIC; microbroth dilution, 1:2 serial dilution 18.2 to 1.8x10-2 μM, 4 × 10^6 CFU/mL, 1 h 37°C in wash buffer pH 7.4, then TSB overnight (18-24 h), OD600; triplicate per plate; mixture: each peptide at the reported concentration
Protocol: (§1) Supplemental Information for Trevellin et al.
(§2) Peptide design and preparation […]
(§3) synthesized by GenScript (Piscataway, NJ) at >95% purity determined by HPLC and dissolved in DI water. Concentrations were measured by triplicate tryptophan absorbance readings at 280 nm (ε=5700 M–1cm–1, l=1 cm) using a ThermoScientific NanoDrop 2000 (Waltham, MA). Buforin II (BF2) included an F10W mutation used in many previous studies1-5 to allow for concentration measurements.
(§4) Bacteria included E. coli (Top10 Strain, Invitrogen/ThermoFisher) containing a plasmid for ampicillin resistance (Novagen) and/or B. subtilis (ATCC #6051). Bacterial growth was performed in TSB (trypticase soy broth) prepared at 3% w/v (30 g of media in 1 L) from BD Difco unless otherwise noted. Overnight cultures were picked from petri dishes or frozen stock and grown for 14-16 hours at 37 °C in TSB with shaking. E. coli overnight cultures were incubated with 25 μg/mL ampicillin. The overnight cultures were then diluted 1:100 in 25 mL TSB and incubated at 37 °C with shaking for 2.5 h. […]
(§5) Microbroth dilution assays were used to determine the minimum inhibitory concentration (MIC) of each peptide for E. coli and B. subtilis (ATCC #6051). […] After incubation, OD600nm were measured using the SpectraMax M3 microplate reader (Molecular Devices). […]

[2] = test system: B. subtilis; assay type: cell-based, B. subtilis (ATCC #6051); conditions: 1 h, pH 7.4
Protocol: as §1, §2, §3, §4, §5

CC[C@H](C)[C@H](NC(=O)[C@H](CCCNC(=N)N)NC(=O)[C@@H](NC(=O)[C@H](CCCCN)NC(=O)[C@H](CCCCN)NC(=O)[C@H](CC(N)=O)NC(=O)[C@H](CC(=O)O)NC(=O)[C@H](CCCNC(=N)N)NC(=O)[C@H](C)N)[C@@H](C)O)C(=O)N[C@@H](Cc1c[nH]c2ccccc12)C(=O)N1CCC[C@H]1C(=O)N[C@@H](CCCNC(=N)N)C(=O)N[C@@H](Cc1c[nH]cn1)C(=O)N[C@@H](CC(C)C)C(=O)N[C@@H](CCC(N)=O)C(=O)N[C@@H](CC(C)C)C(=O)N[C@@H](C)C(=O)N[C@H](C(=O)N[C@@H](CCCNC(=N)N)C(=O)N[C@@H](CC(N)=O)C(=O)O)C(C)C [DesHDAP1, reference compound]
MIC against E. coli [1]: >18.2 µM
MIC against B. subtilis [2]: >18.2 µM
